Counter-ions that a name gives are not always drawn.
Experiments:
[1] = target: DAPK3 (Homo sapiens, UniProt O43293); conditions: supplement CSV
[2] = target: T1, CaMK4 (Homo sapiens, UniProt Q16566); conditions: supplement CSV
T1 sequence (Q16566 1-473): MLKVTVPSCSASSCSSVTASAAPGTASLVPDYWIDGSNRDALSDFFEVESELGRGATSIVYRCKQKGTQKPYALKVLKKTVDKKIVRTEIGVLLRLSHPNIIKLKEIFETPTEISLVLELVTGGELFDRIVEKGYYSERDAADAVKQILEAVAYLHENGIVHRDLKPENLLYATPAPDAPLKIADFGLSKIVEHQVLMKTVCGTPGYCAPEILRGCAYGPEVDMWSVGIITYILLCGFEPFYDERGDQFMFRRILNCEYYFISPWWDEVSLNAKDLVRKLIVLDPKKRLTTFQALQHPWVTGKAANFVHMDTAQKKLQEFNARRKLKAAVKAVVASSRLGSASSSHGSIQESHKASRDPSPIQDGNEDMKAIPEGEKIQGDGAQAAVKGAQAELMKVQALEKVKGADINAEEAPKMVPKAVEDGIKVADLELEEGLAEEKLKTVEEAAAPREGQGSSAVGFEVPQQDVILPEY

The chains behind the UniProt entries cited, without tags or fusion partners. Where a name states a change or a piece, a line headed by the entry shows the natural chain unless it says otherwise.
UniProt O43293: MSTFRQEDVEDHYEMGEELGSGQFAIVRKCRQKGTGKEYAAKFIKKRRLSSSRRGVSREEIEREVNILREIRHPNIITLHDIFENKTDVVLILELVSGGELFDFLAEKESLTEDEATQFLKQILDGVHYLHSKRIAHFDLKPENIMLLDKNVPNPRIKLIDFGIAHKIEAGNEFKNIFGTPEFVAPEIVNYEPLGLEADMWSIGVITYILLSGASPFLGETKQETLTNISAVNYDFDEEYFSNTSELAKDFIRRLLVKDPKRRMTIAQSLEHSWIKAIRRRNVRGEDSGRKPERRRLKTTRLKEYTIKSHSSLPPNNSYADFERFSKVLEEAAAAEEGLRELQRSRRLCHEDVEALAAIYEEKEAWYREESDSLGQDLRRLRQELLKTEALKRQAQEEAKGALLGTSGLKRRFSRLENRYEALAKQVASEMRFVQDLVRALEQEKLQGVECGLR
UniProt P53355: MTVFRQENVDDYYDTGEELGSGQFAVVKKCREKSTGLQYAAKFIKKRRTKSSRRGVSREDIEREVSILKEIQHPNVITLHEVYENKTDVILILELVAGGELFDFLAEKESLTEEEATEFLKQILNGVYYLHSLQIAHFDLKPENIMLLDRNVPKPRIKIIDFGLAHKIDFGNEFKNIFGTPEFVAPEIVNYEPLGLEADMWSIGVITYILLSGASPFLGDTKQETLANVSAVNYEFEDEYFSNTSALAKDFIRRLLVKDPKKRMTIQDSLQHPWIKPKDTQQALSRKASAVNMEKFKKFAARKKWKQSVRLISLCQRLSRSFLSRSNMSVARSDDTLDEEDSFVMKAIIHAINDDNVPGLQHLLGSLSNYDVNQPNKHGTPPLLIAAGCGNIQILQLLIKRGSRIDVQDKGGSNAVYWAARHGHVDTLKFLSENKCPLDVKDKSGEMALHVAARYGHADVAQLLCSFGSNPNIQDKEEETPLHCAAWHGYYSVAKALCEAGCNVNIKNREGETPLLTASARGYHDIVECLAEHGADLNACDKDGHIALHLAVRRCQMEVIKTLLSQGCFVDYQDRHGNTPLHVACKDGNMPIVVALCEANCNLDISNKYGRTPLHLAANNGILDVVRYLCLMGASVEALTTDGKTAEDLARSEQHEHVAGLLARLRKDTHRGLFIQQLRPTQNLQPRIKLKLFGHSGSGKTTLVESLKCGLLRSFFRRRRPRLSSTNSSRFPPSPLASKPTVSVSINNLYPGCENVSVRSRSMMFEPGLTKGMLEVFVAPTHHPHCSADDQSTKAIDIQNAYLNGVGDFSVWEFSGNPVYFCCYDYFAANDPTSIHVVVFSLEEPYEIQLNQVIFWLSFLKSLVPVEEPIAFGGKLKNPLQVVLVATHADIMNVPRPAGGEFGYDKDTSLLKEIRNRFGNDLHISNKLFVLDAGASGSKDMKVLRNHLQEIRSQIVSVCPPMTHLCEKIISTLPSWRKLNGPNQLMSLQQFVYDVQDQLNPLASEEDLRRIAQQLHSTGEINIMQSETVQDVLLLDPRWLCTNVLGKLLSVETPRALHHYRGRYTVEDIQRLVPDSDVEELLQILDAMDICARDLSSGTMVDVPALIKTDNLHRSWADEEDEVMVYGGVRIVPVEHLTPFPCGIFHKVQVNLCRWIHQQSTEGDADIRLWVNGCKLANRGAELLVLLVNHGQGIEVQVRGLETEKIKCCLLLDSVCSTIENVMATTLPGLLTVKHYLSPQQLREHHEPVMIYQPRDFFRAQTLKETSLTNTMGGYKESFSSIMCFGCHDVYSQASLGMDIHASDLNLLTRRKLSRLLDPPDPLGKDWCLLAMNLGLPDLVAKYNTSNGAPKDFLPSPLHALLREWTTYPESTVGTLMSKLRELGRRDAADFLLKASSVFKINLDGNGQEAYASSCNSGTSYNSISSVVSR
UniProt P68400, whole entry: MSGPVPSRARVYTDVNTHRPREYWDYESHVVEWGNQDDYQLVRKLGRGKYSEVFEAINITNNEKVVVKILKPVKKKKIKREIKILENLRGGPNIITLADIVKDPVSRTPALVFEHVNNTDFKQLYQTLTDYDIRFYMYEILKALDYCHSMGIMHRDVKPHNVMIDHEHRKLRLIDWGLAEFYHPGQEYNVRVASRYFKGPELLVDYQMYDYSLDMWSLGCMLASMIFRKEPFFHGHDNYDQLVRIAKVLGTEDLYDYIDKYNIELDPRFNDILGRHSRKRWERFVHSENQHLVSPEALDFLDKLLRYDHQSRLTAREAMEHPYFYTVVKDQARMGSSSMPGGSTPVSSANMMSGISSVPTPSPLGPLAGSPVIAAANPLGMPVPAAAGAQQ
UniProt P00519, whole entry, species assumed: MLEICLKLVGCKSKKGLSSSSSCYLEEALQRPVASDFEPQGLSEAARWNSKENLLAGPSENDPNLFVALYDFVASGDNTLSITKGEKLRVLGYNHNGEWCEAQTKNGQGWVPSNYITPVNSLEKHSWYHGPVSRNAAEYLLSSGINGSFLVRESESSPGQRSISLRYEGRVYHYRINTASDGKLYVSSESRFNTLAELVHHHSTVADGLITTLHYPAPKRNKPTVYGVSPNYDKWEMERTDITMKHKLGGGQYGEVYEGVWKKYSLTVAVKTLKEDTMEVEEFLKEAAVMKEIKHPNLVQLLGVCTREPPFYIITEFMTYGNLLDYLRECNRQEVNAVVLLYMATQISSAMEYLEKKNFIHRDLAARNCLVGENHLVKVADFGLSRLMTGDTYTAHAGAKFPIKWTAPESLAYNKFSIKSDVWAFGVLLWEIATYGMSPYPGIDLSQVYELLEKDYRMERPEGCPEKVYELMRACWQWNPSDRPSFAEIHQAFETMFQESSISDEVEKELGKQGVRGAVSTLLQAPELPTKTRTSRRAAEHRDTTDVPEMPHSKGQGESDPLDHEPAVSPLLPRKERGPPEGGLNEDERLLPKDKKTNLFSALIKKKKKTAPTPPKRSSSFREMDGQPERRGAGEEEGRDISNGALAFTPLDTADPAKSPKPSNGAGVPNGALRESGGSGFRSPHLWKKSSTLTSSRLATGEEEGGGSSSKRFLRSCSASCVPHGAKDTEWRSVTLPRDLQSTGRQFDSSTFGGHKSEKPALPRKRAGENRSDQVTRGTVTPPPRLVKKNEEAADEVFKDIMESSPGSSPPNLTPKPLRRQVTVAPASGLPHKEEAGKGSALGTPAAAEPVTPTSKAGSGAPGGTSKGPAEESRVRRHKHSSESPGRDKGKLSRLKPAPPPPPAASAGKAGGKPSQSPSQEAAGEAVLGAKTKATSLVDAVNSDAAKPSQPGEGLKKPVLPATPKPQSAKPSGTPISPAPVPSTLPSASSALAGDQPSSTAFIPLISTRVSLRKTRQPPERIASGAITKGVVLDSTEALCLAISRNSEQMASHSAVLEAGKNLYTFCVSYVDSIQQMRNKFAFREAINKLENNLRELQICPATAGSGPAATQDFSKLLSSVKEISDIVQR
UniProt P11309, whole entry: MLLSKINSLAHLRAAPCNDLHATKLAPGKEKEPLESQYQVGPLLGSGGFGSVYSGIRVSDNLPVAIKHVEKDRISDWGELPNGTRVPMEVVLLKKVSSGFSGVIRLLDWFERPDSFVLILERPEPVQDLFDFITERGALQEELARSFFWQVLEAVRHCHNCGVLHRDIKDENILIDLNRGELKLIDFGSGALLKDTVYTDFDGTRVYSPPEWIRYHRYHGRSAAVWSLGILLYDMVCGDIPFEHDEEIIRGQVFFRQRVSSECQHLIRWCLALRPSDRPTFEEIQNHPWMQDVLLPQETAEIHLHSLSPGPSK
UniProt P49841, whole entry, species assumed: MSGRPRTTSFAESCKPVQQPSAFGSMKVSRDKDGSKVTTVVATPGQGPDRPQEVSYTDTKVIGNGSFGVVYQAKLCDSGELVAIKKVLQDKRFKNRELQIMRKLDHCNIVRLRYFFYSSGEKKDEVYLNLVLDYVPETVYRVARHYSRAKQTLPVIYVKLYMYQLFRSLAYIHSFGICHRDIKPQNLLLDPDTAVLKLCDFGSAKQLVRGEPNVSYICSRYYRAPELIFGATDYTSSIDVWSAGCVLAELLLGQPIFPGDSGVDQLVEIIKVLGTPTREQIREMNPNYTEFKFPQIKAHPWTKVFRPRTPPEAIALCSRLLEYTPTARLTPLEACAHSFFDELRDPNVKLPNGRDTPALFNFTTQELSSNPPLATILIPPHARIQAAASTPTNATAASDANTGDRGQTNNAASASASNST
UniProt Q96NX5: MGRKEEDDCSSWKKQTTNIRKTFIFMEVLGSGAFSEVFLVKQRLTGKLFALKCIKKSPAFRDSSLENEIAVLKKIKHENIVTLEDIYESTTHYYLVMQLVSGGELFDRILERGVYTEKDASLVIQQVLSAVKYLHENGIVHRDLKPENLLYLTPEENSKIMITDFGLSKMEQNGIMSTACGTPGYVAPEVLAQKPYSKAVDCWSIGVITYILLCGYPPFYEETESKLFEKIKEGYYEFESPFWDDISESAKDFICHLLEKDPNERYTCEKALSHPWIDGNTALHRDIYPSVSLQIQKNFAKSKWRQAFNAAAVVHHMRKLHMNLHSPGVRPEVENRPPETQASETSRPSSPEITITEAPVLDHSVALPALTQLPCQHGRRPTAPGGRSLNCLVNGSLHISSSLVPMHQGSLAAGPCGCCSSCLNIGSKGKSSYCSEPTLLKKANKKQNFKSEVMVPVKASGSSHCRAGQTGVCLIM
UniProt Q9UQM7, whole entry: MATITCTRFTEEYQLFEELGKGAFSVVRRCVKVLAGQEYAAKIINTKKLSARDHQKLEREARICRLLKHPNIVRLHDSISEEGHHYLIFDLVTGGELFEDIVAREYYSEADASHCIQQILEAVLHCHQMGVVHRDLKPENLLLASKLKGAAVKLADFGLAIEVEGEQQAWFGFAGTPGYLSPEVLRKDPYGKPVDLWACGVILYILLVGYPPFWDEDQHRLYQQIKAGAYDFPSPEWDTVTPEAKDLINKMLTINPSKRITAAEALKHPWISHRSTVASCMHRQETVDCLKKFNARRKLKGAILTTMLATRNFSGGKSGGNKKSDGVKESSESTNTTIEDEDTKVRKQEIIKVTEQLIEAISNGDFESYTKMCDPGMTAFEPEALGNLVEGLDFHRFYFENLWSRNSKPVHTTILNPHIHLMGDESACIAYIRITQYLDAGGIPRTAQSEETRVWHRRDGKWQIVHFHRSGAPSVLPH
UniProt O96013: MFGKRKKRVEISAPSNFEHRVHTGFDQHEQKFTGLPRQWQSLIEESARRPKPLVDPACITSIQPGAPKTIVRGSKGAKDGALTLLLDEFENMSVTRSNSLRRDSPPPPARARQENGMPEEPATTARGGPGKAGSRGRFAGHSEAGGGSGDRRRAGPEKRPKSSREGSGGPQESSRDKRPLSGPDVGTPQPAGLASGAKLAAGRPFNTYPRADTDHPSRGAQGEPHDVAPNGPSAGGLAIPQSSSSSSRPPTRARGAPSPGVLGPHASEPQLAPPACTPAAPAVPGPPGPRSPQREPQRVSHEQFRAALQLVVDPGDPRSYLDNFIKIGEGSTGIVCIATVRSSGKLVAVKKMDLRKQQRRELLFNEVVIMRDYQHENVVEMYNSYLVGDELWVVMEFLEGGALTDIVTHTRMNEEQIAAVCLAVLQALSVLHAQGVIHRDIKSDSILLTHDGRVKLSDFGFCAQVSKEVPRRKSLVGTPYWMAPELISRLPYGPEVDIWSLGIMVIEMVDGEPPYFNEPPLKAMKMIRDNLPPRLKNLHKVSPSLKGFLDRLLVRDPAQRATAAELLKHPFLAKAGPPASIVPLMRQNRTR

[3] = target: SYK (Homo sapiens, UniProt P43405); conditions: supplement CSV
[4] = target: DAPK1 (Homo sapiens, UniProt P53355); conditions: supplement CSV
[5] = target: CK2a (Homo sapiens, UniProt P68400); conditions: supplement CSV
[6] = target: ABL (Homo sapiens, UniProt P00519); conditions: supplement CSV
[7] = target: PIM1 (Homo sapiens, UniProt P11309); conditions: supplement CSV
[8] = target: GSK3β (Homo sapiens, UniProt P49841); conditions: supplement CSV
[9] = target: T2, DCLK1 (Homo sapiens, UniProt O15075); conditions: supplement CSV
T2 sequence (O15075 1-740): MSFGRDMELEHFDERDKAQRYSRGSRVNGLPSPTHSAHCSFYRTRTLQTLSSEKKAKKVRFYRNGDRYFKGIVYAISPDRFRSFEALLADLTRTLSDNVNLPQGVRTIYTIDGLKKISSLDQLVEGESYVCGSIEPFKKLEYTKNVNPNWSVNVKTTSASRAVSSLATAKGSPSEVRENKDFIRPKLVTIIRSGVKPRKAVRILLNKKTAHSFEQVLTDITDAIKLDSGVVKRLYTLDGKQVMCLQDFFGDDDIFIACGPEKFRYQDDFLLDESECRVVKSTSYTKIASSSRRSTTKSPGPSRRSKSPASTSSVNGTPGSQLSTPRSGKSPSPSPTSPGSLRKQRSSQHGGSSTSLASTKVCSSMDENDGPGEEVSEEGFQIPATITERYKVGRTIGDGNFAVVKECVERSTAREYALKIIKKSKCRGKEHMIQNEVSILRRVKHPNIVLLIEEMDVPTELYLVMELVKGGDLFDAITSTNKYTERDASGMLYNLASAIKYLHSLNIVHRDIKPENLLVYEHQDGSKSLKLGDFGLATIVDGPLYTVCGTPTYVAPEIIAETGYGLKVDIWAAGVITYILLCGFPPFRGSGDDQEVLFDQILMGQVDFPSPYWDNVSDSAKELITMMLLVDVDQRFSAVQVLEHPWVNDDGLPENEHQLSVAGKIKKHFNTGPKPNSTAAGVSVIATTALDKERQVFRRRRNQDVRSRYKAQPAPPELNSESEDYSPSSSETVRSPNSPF

[10] = target: CAMK1G (Homo sapiens, UniProt Q96NX5); conditions: supplement CSV
[11] = target: CAMK2A (Homo sapiens, UniProt Q9UQM7); conditions: supplement CSV
[12] = target: PAK4 (Homo sapiens, UniProt O96013); conditions: supplement CSV
[13] = test system: DIO mice; conditions: 50 mg/kg repeat dosing
[14] = DIO mice, 14 days at 25 mg/kg
[15] = in vivo; conditions: male, Crl:CD Sprague-Dawley, rat, iv, 1 mg/kg
[16] = in vitro; conditions: mouse, plasma
[17] = in vitro; conditions: rat, plasma
[18] = in vitro; conditions: human, Caco-2

DAPK3 Tm [1] | DAPK1 Tm [4] | CK2alpha Tm [5] | ABL1 Tm [6] | SMILES | CAMK4 Tm [2] | CAMK1G Tm [10] | PAK4 Tm [12] | other results
1.36 0C |  |  |  | CNC(=O)c1cnc(NCCN)nc1Nc1cccc(C(F)(F)F)c1 [Compound 2, 2-((2-Aminoethyl)amino)-N-methyl-4-((3-(trifluoromethyl)phenyl)amino)pyrimidine-5-carboxamide, reference compound] |  |  |  | 
 |  |  |  | CNCCN(C)c1ncc(C(N)=O)c(Nc2cccc(C(F)(F)F)c2)n1 [Compound 4, 2-(Methyl(2-(methylamino)ethyl)amino)-4-((3-(trifluoromethyl)phenyl)amino)pyrimidine-5-carboxamide Hydrochloride] | 3.36 0C |  |  | 
 | 6.07 0C | 5.89 0C | 3.88 0C | NC(=O)c1cnc(N2CCC[C@H](N)C2)nc1Nc1cc(C(F)(F)F)cc(C(F)(F)F)c1 [Compound 9] |  |  |  | SYK Tm [3]: 4.13 0C; PIM1 Tm [7]: 3.98 0C
 | 4.65 0C | 4.05 0C | 5.95 0C | CC(C)c1cc(Nc2nc(N3CCC[C@H](N)C3)ncc2C(N)=O)cc(C(C)C)c1 [Compound 15, (S)-2-(3-Aminopiperidin-1-yl)-4-((3,5-diisopropylphenyl)amino)pyrimidine-5-carboxamide] |  |  |  | 
6.49 0C |  |  |  | CC(C)(C)c1cc(Nc2nc(N3CCC[C@H](N)C3)ncc2C(N)=O)cc(S(C)(=O)=O)c1 [Compound 16, (S)-2-(3-Aminopiperidin-1-yl)-4-((3-(tert-butyl)-5-(methylsulfonyl)phenyl)amino)pyrimidine-5-carboxamide] | 8.73 0C | 11.05 0C | 1.43 0C | GSK3B Tm [8]: -0.11 0C; DCAMKL1 Tm [9]: 0.26 0C; CAMK2A Tm [11]: 1.07 0C
 |  |  |  | CC(C)(C#N)c1cc(Nc2nc(N3CCC[C@H](N)C3)ncc2C(N)=O)cc(-c2ccccc2)c1 [Compound 17, (S)-2-(3-Aminopiperidin-1-yl)-4-((5-(2-cyanopropan-2-yl)-[1,1′-biphenyl]-3-yl)amino)pyrimidine −5-carboxamide Hydrochloride] |  | 17.46 0C | 2.67 0C | 
 |  |  |  | CC(C)c1cc(Nc2nc(N3CCC[C@H](N)C3)ncc2C(N)=O)cc(C(C)C)n1 [Compound 19, (S)-2-(3-Aminopiperidin-1-yl)-4-((2,6-diisopropylpyridin-4-yl)amino)pyrimidine-5-carboxamide] |  |  |  | Papp A→B [18]: 0.4 ×10⁻⁶ cm/s

SMILES | DAPK3 Tm [1] | DAPK1 Tm [4] | CK2alpha Tm [5] | ABL1 Tm [6] | CAMK4 Tm [2] | CAMK1G Tm [10] | PAK4 Tm [12] | other results
CN(C)CCN(C)c1ncc(C(N)=O)c(Nc2cccc(C(F)(F)F)c2)n1 [Compound 5, 2-((2-(Dimethylamino)ethyl)(methyl)amino)-4-((3-(trifluoromethyl)phenyl)amino)pyrimidine-5-carboxamide Hydrochloride] | 3.45 0C |  |  |  | 2.21 0C |  |  | 
CC(C)(C#N)c1cc(Nc2nc(N3CCC[C@H](N)C3)ncc2C(N)=O)cc(C(C)(C)C#N)c1 [Compound 18, (S)-2-(3-Aminopiperidin-1-yl)-4-((3,5-bis(2-cyanopropan-2-yl)phenyl)amino)pyrimidine-5-carboxamide Hydrochloride] |  | 3.46 0C | 0.56 0C | 0.27 0C |  | 11.04 0C | 1.23 0C | PIM1 Tm [7]: 0.81 0C; tolerability of repeat dosing [13]: not tolerated due to bloating of the gastrointestinal tract; exposure on repeat dosing [14]: no significant changes in exposure; metabolites in ex vivo plasma (rat ex vivo plasma samples): only low levels of metabolites; renal excretion (urine from dosed rats): renal excretion of unchanged drug at least partially contributes to clearance; clearance [15]: 125 mL/min/kg; half-life [15]: 6.2 h; fraction unbound [16]: 0.016; fraction unbound [17]: 0.06; Papp A→B [18]: 1.1 ×10⁻⁶ cm/s

Reference: paper PMC7445743 (Journal of Medicinal Chemistry, 2020)
